Values quoted from earlier work, collected in patent US10858423B2, “Composition for the treatment of IGF-1R expressing cancer” (PIERRE FABRE MEDICAMENT, priority 2015, dated 2020).

Target: IGF-1R (Homo sapiens, UniProt P08069)
Conditions: background statement; cited from earlier work

Question: With “IGF1: insulin-like growth factor 1, ligand of IGF-1R” as the substance, how does the pKd read?
Answer: The pKd was ~9.00.

pKd: −log10 of the molar value.
